Target: T1, recombinant human TNFα (human, UniProt P01375 77-233, 125I label in the receptor blocking assay)
T1 construct: also called huTNFα; tumor necrosis factor alpha
Experiment: competition radioligand assay: cA2 spiked into anti-IL-18 control supernatant, preincubated with 5 ng/ml 125I-TNFα, then binding of 125I-TNFα to plate-coated p55-sf2 (TNF receptor/IgG fusion) counted as cpm bound

Sequences of proteins named here, by UniProt entry; tags and fusion partners are left off. Residues count along the entry.
UniProt P01375, 77-233 limits assumed: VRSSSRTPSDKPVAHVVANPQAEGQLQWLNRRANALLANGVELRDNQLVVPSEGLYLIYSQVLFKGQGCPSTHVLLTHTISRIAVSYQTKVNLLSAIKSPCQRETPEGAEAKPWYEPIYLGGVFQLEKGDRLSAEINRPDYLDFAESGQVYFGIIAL

IC50 (read off the curve): ~10 ng/mL
B1: chimeric antibody cA2 (antibody, V domains shown)
VH: EVKLEESGGGLVQPGGSMKLSCVASGFIFSNHWMNWVRQSPEKGLEWVAEIRSKSINSATHYAESVKGRFTISRDDSKSAVYLQMTDLRTEDTGVYYCSRNYYGSTYDYWGQGTTLTVS
VL: DILLTQSPAILSVSPGERVSFSCRASQFVGSSIHWYQQRTNGSPRLLIKYASESMSGIPSRFSGSGSGTDFTLSINTVESEDIADYYCQQSHSWPFTFGSGTNLEVK
